# Data taken from patent US11077078B2, “Compositions and methods for the treatment of cancer” (KoDiscovery, LLC, priority 2006, dated 2021).
# Tested on: Hepatocellular carcinoma cells
# Assay: Rat hepatocellular carcinoma study: cancer cell viability vs μM of anti-cancer agents (FIG. 3)
# Details: 23 hour period; cell viability 5% vs 55%
compound,measurement,value
"O=C(O)C(=O)CBr [3-Bromopyruvate, 3-bromopyruvate]","efficiency as compared to the closest anti-cancer agent, methotrexate, in terms of cell viability",10 times
